Where two headings read alike, the source gives them in different places.
Legend:
[1] = biological target: melanocortin 1 receptor (MC1R) (Homo sapiens, UniProt Q01726); assay: cAMP accumulation assay (HTRF), agonist and/or antagonist activity at MC1R (Example 1, Table 11); conditions: dose-response; for EC50: cAMP
[2] = biological target: melanocortin 5 receptor (MC5R) (Homo sapiens, UniProt P33032); assay: cAMP accumulation assay (HTRF), agonist and/or antagonist activity at MC5R (Example 1, Table 14); conditions: dose-response against MC5R
[3] = biological target: human melanocortin 3 receptor (MC3R) (Homo sapiens, UniProt P41968); assay: cAMP accumulation assay (HTRF), antagonist and/or agonist activity at MC3R (Example 1, Table 12, FIGS. 1-4)
[4] = biological target: human melanocortin 4 receptor (MC4R) (Homo sapiens, UniProt P32245); assay: cAMP accumulation assay (HTRF), antagonist and/or agonist activity at MC4R (Example 1, Table 13, FIGS. 5-8); conditions: for Top (%): top of curve
[5] = MC3R, antagonist activity, dose-response, cAMP
[6] = Table 13, dose-response against MC4R, cAMP
[7] = read-out: IC50 (antagonist activity on MC4R), cAMP levels, antagonist
[8] = MC3R, antagonist activity, dose-response
[9] = read-out: IC50 (antagonist activity on MC3R), cAMP levels, antagonist

The chains behind the UniProt entries cited, without tags or fusion partners.
UniProt Q01726, whole entry: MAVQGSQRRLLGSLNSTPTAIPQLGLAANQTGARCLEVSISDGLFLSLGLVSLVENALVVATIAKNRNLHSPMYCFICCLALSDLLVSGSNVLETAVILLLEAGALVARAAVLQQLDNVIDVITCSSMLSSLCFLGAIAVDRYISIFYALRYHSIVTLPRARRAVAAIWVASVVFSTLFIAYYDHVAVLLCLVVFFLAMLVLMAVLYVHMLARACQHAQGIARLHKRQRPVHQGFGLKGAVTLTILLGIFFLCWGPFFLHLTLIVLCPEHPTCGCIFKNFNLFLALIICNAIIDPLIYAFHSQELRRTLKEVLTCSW
UniProt P33032, whole entry: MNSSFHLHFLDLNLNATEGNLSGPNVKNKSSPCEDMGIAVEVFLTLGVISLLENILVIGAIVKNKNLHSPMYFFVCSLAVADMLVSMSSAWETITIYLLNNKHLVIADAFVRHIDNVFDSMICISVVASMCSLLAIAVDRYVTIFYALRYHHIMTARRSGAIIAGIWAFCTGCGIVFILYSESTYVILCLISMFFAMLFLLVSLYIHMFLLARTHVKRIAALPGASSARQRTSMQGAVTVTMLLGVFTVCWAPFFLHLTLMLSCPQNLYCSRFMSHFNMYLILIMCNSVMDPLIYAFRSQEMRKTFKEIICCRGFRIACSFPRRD
UniProt P41968, whole entry: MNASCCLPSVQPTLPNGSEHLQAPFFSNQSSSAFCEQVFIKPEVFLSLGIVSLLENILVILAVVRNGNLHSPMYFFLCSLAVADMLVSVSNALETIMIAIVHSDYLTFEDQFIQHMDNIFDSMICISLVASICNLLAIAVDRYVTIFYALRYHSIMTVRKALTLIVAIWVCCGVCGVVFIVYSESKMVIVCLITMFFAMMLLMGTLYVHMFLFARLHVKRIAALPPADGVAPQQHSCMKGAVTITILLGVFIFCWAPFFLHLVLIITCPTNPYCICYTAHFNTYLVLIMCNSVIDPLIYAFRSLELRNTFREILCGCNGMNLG
UniProt P32245, whole entry: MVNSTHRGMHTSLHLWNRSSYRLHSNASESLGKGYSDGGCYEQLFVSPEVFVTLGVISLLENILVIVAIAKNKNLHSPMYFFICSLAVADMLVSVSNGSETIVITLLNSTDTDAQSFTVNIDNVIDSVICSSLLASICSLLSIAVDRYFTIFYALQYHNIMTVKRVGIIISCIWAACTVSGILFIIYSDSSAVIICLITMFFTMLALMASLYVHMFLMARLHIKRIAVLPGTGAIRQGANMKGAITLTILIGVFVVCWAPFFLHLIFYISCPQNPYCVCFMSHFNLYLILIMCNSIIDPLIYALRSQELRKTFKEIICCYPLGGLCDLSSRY

| Compound | EC50 [1] [nM] | EC50 [2] [nM] | IC50 [3, 5] [nM] | IC50 [4, 6] [nM] | IC50 [4, 7] [nM] | Hill Coefficient [1] | Top [1] [%] | Hill Coefficient [2] | Top (%) ([2]; top of curve) | Hill Coefficient [3, 8] | Top [3, 8] [%] | Hill Coefficient [4, 6] | Top (%) [4, 6] [%] | IC50 [3, 9] [nM] |
| --- | --- | --- | --- | --- | --- | --- | --- | --- | --- | --- | --- | --- | --- | --- |
| CCCC[C@H](NC(C)=O)C(=O)N[C@H]1CC(=O)NCCCC[C@@H](C(=O)N[C@@H](C(=O)N[C@@H](CC(=O)O)C(N)=O)C(C)C)NC(=O)[C@H](Cc2c[nH]c3ccccc23)NC(=O)[C@H](CCCNC(=N)N)NC(=O)[C@@H](Cc2ccc3ccccc3c2)NC(=O)[C@@H]2CCCN2C1=O | 110 | 0.53 | 5.41 | 160 |  |  |  |  |  |  |  |  |  |  |
| CCCC[C@H](NC(C)=O)C(=O)N[C@H]1CC(=O)NCCCC[C@@H](C(=O)N2CCC[C@@H]2C(=O)N[C@@H](C(=O)O)C(C)C)NC(=O)[C@H](Cc2c[nH]c3ccccc23)NC(=O)[C@H](CCCNC(=N)N)NC(=O)[C@@H](Cc2ccc3ccccc3c2)NC(=O)[C@@H]2CCCN2C1=O | 290 | 1.5 | 49.5 | 670 |  |  |  |  |  |  |  |  |  |  |
| CC(=O)N[C@H](CS)C(=O)N[C@H]1CC(=O)NCCCC[C@@H](C(=O)N[C@@H](C(=O)N2CCC[C@@H]2C(N)=O)C(C)C)NC(=O)[C@H](Cc2c[nH]c3ccccc23)NC(=O)[C@H](CCCNC(=N)N)NC(=O)[C@@H](Cc2ccc3ccccc3c2)NC(=O)[C@@H]2CCCN2C1=O | 420 | 0.54 | 20.4 | 480 | < 10000 |  |  |  |  |  |  |  |  |  |
| CCCC[C@H](NC(C)=O)C(=O)N[C@H]1CC(=O)NCCCC[C@@H](C(=O)N[C@@H](C(=O)N2CCC[C@@H]2C(N)=O)C(C)C)NC(=O)[C@@H]2CCCN2C(=O)[C@H](Cc2c[nH]c3ccccc23)NC(=O)[C@H](CCCNC(=N)N)NC(=O)[C@@H](Cc2ccc3ccccc3c2)NC(=O)[C@H](Cc2c[nH]cn2)NC1=O | 0.38 | 3.22 | 407 | 46.7 |  | 1.12 | 101.26 | 1.19 | 101.59 | 1.10 | 100 | 1.53 | 67.13 |  |
| CCCC[C@H](NC(C)=O)C(=O)N[C@H]1CC(=O)NCCCC[C@@H](C(=O)N[C@H](CC(N)=O)C(=O)N2CCC[C@@H]2C(N)=O)NC(=O)[C@H](Cc2c[nH]c3ccccc23)NC(=O)[C@H](CCCNC(=N)N)NC(=O)[C@@H](Cc2ccc3ccccc3c2)NC(=O)[C@@H]2CCCN2C1=O | 4 | 0.04 | 1.05 | 10 |  |  |  |  |  |  |  |  |  |  |
| CCCC[C@H](NC(C)=O)C(=O)N[C@H]1CC(=O)NCCCC[C@@H](C(=O)N[C@@H](CCCCN)C(=O)N2CCC[C@@H]2C(N)=O)NC(=O)[C@H](Cc2c[nH]c3ccccc23)NC(=O)[C@H](CCCNC(=N)N)NC(=O)[C@@H](Cc2ccc3ccccc3c2)NC(=O)[C@@H]2CCCN2C1=O | 3.5 | 0.19 | 1.59 | 6 |  |  |  |  |  |  |  |  |  |  |
| CCCC[C@H](NC(C)=O)C(=O)N[C@H]1CC(=O)NCCCC[C@@H](C(=O)N[C@@H](C(=O)N2CCC[C@@H]2C(N)=O)C(C)C)NC(=O)[C@H](Cc2c[nH]c3ccccc23)NC(=O)[C@H](CCCNC(=N)N)NC(=O)[C@@H](Cc2ccc3ccccc3c2)NC(=O)CNC1=O | 27 | 22 | 91.9 | 260 | < 10000 |  |  |  |  |  |  |  |  | < 10000 |
| CCCC[C@H](NC(C)=O)C(=O)N[C@H]1CSSC(C)(C)[C@@H](C(=O)N[C@@H](C(=O)N2CCC[C@@H]2C(N)=O)C(C)C)NC(=O)[C@H](Cc2c[nH]c3ccccc23)NC(=O)[C@H](CCCNC(=N)N)NC(=O)[C@@H](Cc2ccc3ccccc3c2)NC(=O)[C@@H]2CCCN2C1=O | 27 | 15 | 9.31 | 29 |  |  |  |  |  |  |  |  |  |  |
| CC(=O)N[C@H](CC(N)=O)C(=O)N[C@H]1CC(=O)NCCCC[C@@H](C(=O)N[C@@H](C(=O)N2CCC[C@@H]2C(N)=O)C(C)C)NC(=O)[C@H](Cc2c[nH]c3ccccc23)NC(=O)[C@H](CCCNC(=N)N)NC(=O)[C@@H](Cc2ccc3ccccc3c2)NC(=O)[C@@H]2CCCN2C1=O | > 1000 | 63 | 720 | > 1000 |  |  |  |  |  |  |  |  |  |  |
| CCCC[C@H](NC(C)=O)C(=O)N[C@H]1CC(=O)NCCCC[C@@H](C(=O)N[C@@H](C(=O)N[C@@H](C(=O)N[C@@H](C(=O)N2CCC[C@@H]2C(N)=O)C(C)C)C(C)C)C(C)C)NC(=O)[C@H](Cc2c[nH]c3ccccc23)NC(=O)[C@H](CCCNC(=N)N)NC(=O)[C@@H](Cc2ccc3ccccc3c2)NC(=O)[C@@H]2CCCN2C1=O | 110 | 0.06 | 7.68 | 43 |  |  |  |  |  |  |  |  |  |  |
| CC(=O)N[C@H](CCCNC(=N)N)C(=O)N[C@H]1CC(=O)NCCCC[C@@H](C(=O)N[C@@H](C(=O)N2CCC[C@@H]2C(N)=O)C(C)C)NC(=O)[C@H](Cc2c[nH]c3ccccc23)NC(=O)[C@H](CCCNC(=N)N)NC(=O)[C@@H](Cc2ccc3ccccc3c2)NC(=O)[C@@H]2CCCN2C1=O | > 1000 | 2.6 | 2.98 | 89 |  |  |  |  |  |  |  |  |  |  |
| CCCC[C@H](NC(C)=O)C(=O)N[C@H]1CC(=O)NCCC[C@@H](C(=O)N[C@@H](C(=O)N2CCC[C@@H]2C(N)=O)C(C)C)NC(=O)[C@H](Cc2c[nH]c3ccccc23)NC(=O)[C@H](CCCNC(=N)N)NC(=O)[C@@H](Cc2ccc3ccccc3c2)NC(=O)[C@@H]2CCCN2C1=O | 13 | 0.02 | 0.96 | 41 |  |  |  |  |  |  |  |  |  |  |
| CC(=O)N[C@H](Cc1ccccc1)C(=O)N[C@H]1CC(=O)NCCCC[C@@H](C(=O)N[C@@H](C(=O)N2CCC[C@@H]2C(N)=O)C(C)C)NC(=O)[C@H](Cc2c[nH]c3ccccc23)NC(=O)[C@H](CCCNC(=N)N)NC(=O)[C@@H](Cc2ccc3ccccc3c2)NC(=O)[C@@H]2CCCN2C1=O | 640 | 4.5 | 4.79 | > 1000 |  |  |  |  |  |  |  |  |  |  |
| CCCC[C@H](NC(C)=O)C(=O)N[C@@H](CCCC)C(=O)N[C@@H](CCCC)C(=O)N[C@@H](CCCC)C(=O)N[C@H]1CC(=O)NCCCC[C@@H](C(=O)N[C@@H](C(=O)N2CCC[C@@H]2C(N)=O)C(C)C)NC(=O)[C@H](Cc2c[nH]c3ccccc23)NC(=O)[C@H](CCCNC(=N)N)NC(=O)[C@@H](Cc2ccc3ccccc3c2)NC(=O)[C@@H]2CCCN2C1=O | 200 | 0.35 | 251 | 250 |  |  |  |  |  |  |  |  |  |  |
| CCCC[C@H](NC(C)=O)C(=O)N[C@H]1CC(=O)NCCCC[C@@H](C(=O)N[C@@H](C(=O)N2CCC[C@@H]2C(N)=O)C(C)C)NC(=O)[C@H](Cc2c[nH]c3ccccc23)NC(=O)[C@H](CCCNC(=N)N)NC(=O)[C@@H](Cc2ccc3ccccc3c2)NC(=O)CCNC1=O | > 1000 | 270 | > 1000 | > 1000 |  |  |  |  |  |  |  |  |  |  |
| CCCC[C@H](NC(C)=O)C(=O)N[C@@H](Cc1ccccc1)C(=O)N[C@@H](Cc1ccccc1)C(=O)N[C@H]1CC(=O)NCCCC[C@@H](C(=O)N[C@@H](C(=O)N2CCC[C@@H]2C(N)=O)C(C)C)NC(=O)[C@H](Cc2c[nH]c3ccccc23)NC(=O)[C@H](CCCNC(=N)N)NC(=O)[C@@H](Cc2ccc3ccccc3c2)NC(=O)[C@H](Cc2c[nH]cn2)NC(=O)[C@H](Cc2ccccc2)NC1=O | 30.3 | 85.4 | 252 | 102 |  | 1.79 | 99.27 | 5.39 |  | 1.58 | 100.22 | 6.69 | 98.98 |  |
| CCCC[C@H](NC(C)=O)C(=O)N[C@H]1CC(=O)NCCCC[C@@H](C(=O)N[C@@H](C(=O)N2CCC[C@@H]2C(N)=O)C(C)C)NC(=O)[C@H](Cc2c[nH]c3ccccc23)NC(=O)[C@H](C)NC(=O)[C@@H](Cc2ccc3ccccc3c2)NC(=O)[C@@H]2CCCN2C1=O | > 1000 | 85 | 580 | > 1000 |  |  |  |  |  |  |  |  |  | < 10000 |
| CCCC[C@H](NC(C)=O)C(=O)N[C@@H]1C(=O)N2CCC[C@H]2C(=O)N[C@H](Cc2ccc3ccccc3c2)C(=O)N[C@@H](CCCNC(=N)N)C(=O)N[C@@H](Cc2c[nH]c3ccccc23)C(=O)N[C@H](C(=O)N[C@@H](C(=O)N2CCC[C@@H]2C(N)=O)C(C)C)CSSC1(C)C | 76 | 7.6 | 8.66 | 85 |  |  |  |  |  |  |  |  |  |  |
| CCCC[C@H](NC(C)=O)C(=O)N[C@H]1CC(=O)NCCC[C@H](C(=O)N[C@@H](C(=O)N2CCC[C@@H]2C(N)=O)C(C)C)NC(=O)[C@H](Cc2c[nH]c3ccccc23)NC(=O)[C@H](CCCNC(=N)N)NC(=O)[C@@H](Cc2ccc3ccccc3c2)NC(=O)[C@@H]2CCCN2C1=O | 430 | 42 | 480 | 920 |  |  |  |  |  |  |  |  |  |  |
| CC[C@@H](C)[C@@H](NC(C)=O)C(=O)N[C@H]1CC(=O)NCCCC[C@@H](C(=O)N[C@@H](C(=O)N2CCC[C@@H]2C(N)=O)C(C)C)NC(=O)[C@H](Cc2c[nH]c3ccccc23)NC(=O)[C@H](CCCNC(=N)N)NC(=O)[C@@H](Cc2ccc3ccccc3c2)NC(=O)[C@@H]2CCCN2C1=O | 36 | 12 | 5.92 | 230 |  |  |  |  |  |  |  |  |  |  |
